System: NCCCC[C@H](N)C(=O)O
Test: purified protein
Conditions: 3 mM ATP, 15 mM MgCl2, 150 mM hydroxylamine, HEPES pH 7.5, 37 °C, 5 µM enzyme

Substance: PosA adenylation domain (Acinetobacter baumannii AB307-0294)
- Km: 8.59 ± 0.68 mM
- Vmax: 8.46 µM/min
- kcat: 0.0282 s⁻¹
- kcat/Km: 3.28 M⁻¹ s⁻¹

Source: paper PMC10522769
